Compound activity from PubChem BioAssay.
Only some compounds are listed: those with a hit (about 1.6% of all), similar ones and a draw of the others.
CAL PDZ FP-1: untagged CAL PDZ binding inhibitors, primary screen, biochemical, fluorescence polarization, HTS | purified CAL PDZ, TMR-peptide fluorescence polarization, 1 h | inhibition, % at 24.9 µM | 300,000 tested, 0.92% active | AID 602252, 2012;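 active = mean inhibition of at least 30% with at least half of replicates also reaching 30%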;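 also: 0% = DMSO neutral control and 100% = excess unlabeled competitor peptide PRC23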
PglD inh: C. jejuni PglD acetyltransferase inhibitors, primary screen, biochemical, DTNB colorimetric, single point. UDP-N-acetylbacillosamine N-acetyltransferase PglD (Campylobacter jejuni). 360,000 tested, 0.098% active. purified PglD enzyme, DTNB colorimetric CoA detection. inhibition, % at 12.5 µM. AID 602405, 2012; in the data active = inhibition above about 16%, passing the limit was not always enough
Yeast UUG start: modulators of start codon recognition fidelity in yeast. S. cerevisiae UUG-firefly luciferase reporter, luminescence/redox ratio. activity score, % at 18.7 µM. 0.13% of 350,000 active. AID 602363;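 active = replicate mean at a twofold rise or more, about +100% in these data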;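 also: firefly luciferase made from a UUG start codon reports start codon fidelity; reporter light over untreated wells divided by growth signal over untreated wells; some hits fall short of that in this replicate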
Vif inh: HIV Vif self-association inhibitors, primary screen, imaging, HEK293T, single point; HEK293T cells, Vif self-association by quenched fluorescence, 24 h; inhibition, % at 7.49 µM; 340,000 tested, 0.35% active; AID 602346, 2012; in the data active = inhibition above about 50%, passing the limit was not always enough
CAL PDZ FP-2: CAL PDZ peptide-binding inhibitors, primary screen, biochemical, fluorescence polarization, Cer-tagged CAL PDZ, HTS | purified CAL PDZ, TMR-peptide fluorescence polarization, 1 h | inhibition, % at 20 µM | Golgi-associated PDZ and coiled-coil motif-containing protein (Homo sapiens), Q9HD26 | 330,000 tested, 0.02% active;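 active = highest replicate inhibition of at least 40%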;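 also: plate controls were DMSO neutral control wells for no effect and unlabeled competitor peptide control wells for full effect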
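System: tagged CAL PDZ domain. Schedule: 1 h room-temperature incubation prior to read. Signal: fluorescence polarization (mP). Measure: percent inhibition from loss of millipolarization.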
ARNT TACC3 PPI: disruptors of ARNT/TACC3 protein interaction, primary screen, biochemical, AlphaScreen, single concentration. Transforming acidic coiled-coil-containing protein 3 (Homo sapiens), Q9Y6A5. AlphaScreen His-ARNT PAS-B/GST-TACC3 binding, luminescence; TACC3 fragment carries E629A point mutation. inhibition, % at 9.99 µM. 390,000 tested, 0.66% active. AID 623870, 2012;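 active = mean inhibition of replicates at least 50% and at least half of replicates each reaching 50%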;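 also: 0% = complete ARNT plus TACC3 wells and 100% = ARNT alone without TACC3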
The depositor's hits bear a star; nt = no result; + = active, no number.

Yeast UUG start | Vif inh | ARNT TACC3 PPI | CAL PDZ FP-2 | PglD inh | CAL PDZ FP-1 | SMILES
-8 | nt | -4 | nt | 4 | nt | CCCC(=O)Nc1ccc2c(c1)C(=O)N(C)C[C@@H](OC)[C@@H](C)CN(C(=O)CN(C)C)[C@@H](C)CO2
-25 | 1 | 24* | 0 | 2 | 0 | CC(=O)[C@H]1[C@@H]2C(=O)N(c3cccc(Cl)c3)C(=O)[C@@H]2[C@H]2c3ccccc3C=CN21
-5 | 4 | 15 | -1 | -1 | -2 | O=C(c1ccco1)[C@@H]1[C@@H]2C(=O)N(c3ccc(Br)cc3)C(=O)[C@@H]2C2c3ccccc3C=CN21 (stereo partly drawn)
-29 | 19 | 63* | -1 | -2 | -4 | Cc1ccc(-c2cnc(N)n2C)cc1C
-54 | -5 | -10 | -2 | 0 | -7 | Cc1ccc(-c2cnc3ccccc3n2)cc1C
-9 | nt | 1 | nt | 1 | nt | C[C@@H](NC(=O)C[C@@H]1CC[C@@H](NC(=O)C2CC2)[C@@H](CO)O1)c1ccccc1
7 | -4 | 6 | -1 | 3 | -3 | O=C1c2ccccc2C(=O)c2c(NCc3cccnc3)cccc21
nt | 16 | 49* | 7 | nt | -3 | O=C1c2cccc(NCCCNCCO)c2C(=O)c2cccc(NCCCNCCO)c21
6 | nt | nt | nt | -1 | nt | O=C(C[C@H]1CC[C@@H](NS(=O)(=O)c2ccc(F)cc2)[C@H](CO)O1)NCCN1CCCCC1
-5 | 30 | -6 | 0 | 1 | 1 | Cc1cc(C)n(CC(=O)N2CCCC(C(=O)c3cccc(OC(C)C)c3)C2)n1 (stereo not drawn)
-12 | -2 | 1 | -1 | 2 | 77* | CC(C)Oc1cccc(C(=O)C2CCCN(C(=O)CCn3cnnn3)C2)c1 (stereo not drawn)
-10 | -6 | -2 | -1 | 7 | 43* | COc1ccc(S(=O)(=O)N/N=C(/C)c2cccc(NC(=O)c3ccccc3Cl)c2)cc1
-7 | 8 | nt | 0 | -2 | 6 | CC(=O)Nc1cccc(/C(C)=N/NS(=O)(=O)c2ccccc2)c1
-8 | -4 | 1 | -1 | -5 | + | CCOC(=O)C1(C)Oc2ccccc2C(C(=O)OC)=C1C(=O)OC (stereo not drawn)
-22 | -12 | -2 | -3 | 1 | 47* | O=C(CSc1nnc(SCc2ccc(Cl)cc2)s1)N/N=C/c1ccc(C(=O)O)cc1
nt | nt | 43* | nt | 0 | nt | COc1cccc(-c2cccc(-c3nc(C(=O)O)cc4c3[C@@H](CCO)N(S(=O)C(C)(C)C)C4)c2)c1 (stereo partly drawn)
-10 | 63* | 2 | -2 | -2 | -1 | CC(=O)N1c2c(cc(Br)cc2S(=O)(=O)N2CCOCC2)CC1C (stereo not drawn)
-9 | -4 | -3 | -1 | -2 | 42* | Cn1c(CC(=O)Nc2ccccc2F)nnc1SCC(=O)Nc1ccccc1Br
-6 | nt | 2 | nt | 3 | nt | COCCNC(=O)C[C@H]1C=C[C@@H](NC(=O)NC2CCCCC2)[C@H](CO)O1
-11 | -5 | -1 | 1 | -3 | 77* | CN(C)c1cccc(C(=O)NNC(=O)/C=C/c2cccs2)c1

As a working copy, some entries already given:
Yeast UUG start | Vif inh | ARNT TACC3 PPI | CAL PDZ FP-2 | PglD inh | CAL PDZ FP-1 | SMILES
-8 | nt | -4 | nt | 4 | nt | CCCC(=O)Nc1ccc2c(c1)C(=O)N(C)C[C@@H](OC)[C@@H](C)CN(C(=O)CN(C)C)[C@@H](C)CO2
-25 | 1 | 24* | 0 | 2 | 0 | CC(=O)[C@H]1[C@@H]2C(=O)N(c3cccc(Cl)c3)C(=O)[C@@H]2[C@H]2c3ccccc3C=CN21
-5 | 4 | 15 | -1 | -1 | -2 | O=C(c1ccco1)[C@@H]1[C@@H]2C(=O)N(c3ccc(Br)cc3)C(=O)[C@@H]2C2c3ccccc3C=CN21 (stereo partly drawn)
-29 | 19 | 63* | -1 | -2 | -4 | Cc1ccc(-c2cnc(N)n2C)cc1C

Carrying on:
Yeast UUG start | Vif inh | ARNT TACC3 PPI | CAL PDZ FP-2 | PglD inh | CAL PDZ FP-1 | SMILES
1 | nt | -12 | nt | -1 | nt | C[C@@H]1CN([C@@H](C)CO)C(=O)c2cc(C3=CCCC3)cnc2O[C@H]1CN(C)C(=O)C1CCOCC1
-9 | -4 | 33 | -3 | -1 | -5 | CC(/C=N/Nc1nnc(C)c(=O)[nH]1)=C\c1ccccc1
-21 | 9 | 66* | 1 | -2 | 0 | C/C(=N\Nc1nnc(C)c(=O)[nH]1)C(=O)O
nt | nt | 1 | nt | -5 | nt | COC(=O)[C@@H]1[C@@H](CO)[C@@H]2Cn3c(ccc(-c4ccccc4OC)c3=O)[C@@H]2N1CC1CCOCC1
-3 | 54* | 1 | -1 | -2 | -1 | CCOC(=O)Nc1oc2ccccc2c(=O)c1CN1CCOCC1
-3 | -1 | -3 | -1 | -4 | -3 | CCOC(=O)c1oc2ccccc2c1CN1CC(C)OC(C)C1 (stereo not drawn)
-1 | nt | 9 | nt | 4 | nt | O=C(CN1CCOCC1)NCC[C@H]1CC[C@@H](NC(=O)c2ccccc2F)[C@@H](CO)O1
-13 | 6 | -9 | 0 | 4 | 37* | Cc1nnsc1C(=O)N1CCN(c2ccc(F)cc2)CC1
-16 | -6 | 2 | 0 | -9 | 86* | Cc1c(C(=O)N2CCN(c3ccc(F)cc3)CC2)sc2nc3n(c(=O)c12)CCC3
-11 | -1 | -1 | -1 | -4 | 1 | Cc1nnsc1C(=O)N1CCCC(N2CCN(c3ccc(F)cc3)CC2)C1 (stereo not drawn)
-6 | -11 | 66* | -1 | 0 | 2 | Cc1ccc(Cn2ncc3c(NN)ncnc32)cc1
nt | -1 | -10 | 0 | nt | 52* | CCOC(=O)c1cnc2ncnn2c1N
-16 | 10 | 2 | 7 | -3 | 53* | Nc1nc(SCC(=O)c2ccc(Cl)cc2)c2ncn(C3OC(CO)C(O)C3O)c2n1 (stereo not drawn)
-3 | -2 | 1 | 0 | 3 | 0 | Nc1nc(SCc2ccccc2)c2ncn(C3OC(CO)C(O)C3O)c2n1 (stereo not drawn)
8 | nt | 10 | nt | 2 | nt | C[C@H](CO)N1C[C@H](C)[C@@H](CN(C)Cc2ccc(Oc3ccccc3)cc2)Oc2ccc(NC(=O)CCN3CCOCC3)cc2CC1=O
0 | 6 | -4 | -1 | -4 | 1 | COc1cccc(/C=N/n2c(N)c(S(=O)(=O)c3cccs3)c3nc4ccccc4nc32)c1
0 | 21 | 33 | -2 | 5 | 49* | Nc1c(S(=O)(=O)c2cccs2)c2nc3ccccc3nc2n1/N=C/c1cccc(O)c1
-3 | 50* | 20 | -1 | -3 | nt | COc1cc2nc(N(CCCN(C)C)C(=O)c3ccc(S(=O)(=O)N4CCc5ccccc54)cc3)sc2cc1OC
-12 | 12 | -27 | 1 | -7 | 3 | CC1(OC(=O)CCc2ccccc2)C(=O)C=C2C=C(c3ccc(C#N)cc3)N(Cc3ccccc3)C=C2C1=O (stereo not drawn)
-9 | -4 | active | 1 | -1 | 1 | COCCN1C=C2C(=O)C(C)(OC(=O)CCc3ccccc3)C(=O)C=C2C=C1c1ccc(C#N)cc1 (stereo not drawn)
-15 | nt | 1 | nt | -2 | nt | Cc1nn(C)cc1NC(=O)C[C@@H]1CC[C@H]2[C@@H](COc3ccc(NC(=O)Nc4cccc(Cl)c4)cc3C(=O)N2C)O1

Exported with values under each structure: entries from further up.
Each structure is followed by: Yeast UUG start | Vif inh | ARNT TACC3 PPI | CAL PDZ FP-2 | PglD inh | CAL PDZ FP-1
- Nc1c(S(=O)(=O)c2cccs2)c2nc3ccccc3nc2n1/N=C/c1cccc(O)c1
  0 | 21 | 33 | -2 | 5 | 49*
- COc1cc2nc(N(CCCN(C)C)C(=O)c3ccc(S(=O)(=O)N4CCc5ccccc54)cc3)sc2cc1OC
  -3 | 50* | 20 | -1 | -3 | nt
